Source: ChEMBL document CHEMBL3808325, “Discovery and Optimization of Macrocyclic Quinoxaline-pyrrolo-dihydropiperidinones as Potent Pim-1/2 Kinase Inhibitors” (ACS Med Chem Lett, 2016)

The chains behind the UniProt entries cited, without tags or fusion partners.
UniProt P11309, whole entry: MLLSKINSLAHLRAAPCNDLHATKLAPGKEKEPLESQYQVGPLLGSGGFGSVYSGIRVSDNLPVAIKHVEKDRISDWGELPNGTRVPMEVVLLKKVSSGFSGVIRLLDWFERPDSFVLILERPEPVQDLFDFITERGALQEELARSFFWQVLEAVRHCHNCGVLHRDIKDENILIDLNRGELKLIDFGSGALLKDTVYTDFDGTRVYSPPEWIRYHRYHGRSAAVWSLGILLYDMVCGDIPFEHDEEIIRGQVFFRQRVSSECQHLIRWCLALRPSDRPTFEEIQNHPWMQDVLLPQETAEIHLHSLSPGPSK

Target: Serine/threonine-protein kinase pim-1 (Homo sapiens, UniProt P11309)
Assay: Inhibition of human full-length Pim1 expressed in Escherichia coli assessed as phosphorylation of biotinylated BAD peptide at Ser-112 preincubated for 30 mins followed by substrate addition measured after 1 hr by HTRF assay
Outline: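 Cell-free kinase assay using recombinant Pim-1 or Pim-2. Read-out is phosphorylation of a short BAD peptide sequence spanning Ser-112.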

IC50: 5 nM
SMILES: CCCNc1nc2c(-c3cc4c([nH]3)CCNC4=O)cccc2nc1C
